The assay can be described thus: Inhibition of Tel-fused TRKB (unknown origin) overexpressed in mouse BA/F3 cells assessed as inhibition of cell proliferation after 48 hrs by luciferase reporter gene assay in absence of recombinant mouse IL3. Background: A reporter such as luciferase makes a cellular process visible.

Turning to `N#Cc1ccc(-c2cnc3ccc(N4CCOCC4c4cccc(F)c4)nn23)cc1` (racemic), the IC50 (in general, the midpoint of a concentration-inhibition curve) is 47 nM.

The values are drawn from BindingDB's records for doi:10.1021/acsmedchemlett.5b00050 (Genomics Institute of The Novartis Research Foundation, 2015).
